Patent US8008316B2, “Azonafide derived tumor and cancer targeting compounds” (The United States of America as represented by the …, priority 2006, dated 2011)

Test system: lung cancer cell line (Calu-3) overexpressing Her2/neu
Test: MTT cell toxicity assay on Calu-3 cells
Type: cell-based
Conditions: Calu-3, MTT

Question: How did the “Cell Number, % From Control” value (concentration 50 nM) turn out when “Trastuzumab: antibody against Her2/Nue [reference compound]” was run?
Answer: Its value is 47%.

Question: And the “Cell Number, % From Control” value (concentration 100 nM)?
Answer: Its value is 54%.
